By UniProt entry, the sequences of proteins in these tests, tags left out.
UniProt P07550, whole entry: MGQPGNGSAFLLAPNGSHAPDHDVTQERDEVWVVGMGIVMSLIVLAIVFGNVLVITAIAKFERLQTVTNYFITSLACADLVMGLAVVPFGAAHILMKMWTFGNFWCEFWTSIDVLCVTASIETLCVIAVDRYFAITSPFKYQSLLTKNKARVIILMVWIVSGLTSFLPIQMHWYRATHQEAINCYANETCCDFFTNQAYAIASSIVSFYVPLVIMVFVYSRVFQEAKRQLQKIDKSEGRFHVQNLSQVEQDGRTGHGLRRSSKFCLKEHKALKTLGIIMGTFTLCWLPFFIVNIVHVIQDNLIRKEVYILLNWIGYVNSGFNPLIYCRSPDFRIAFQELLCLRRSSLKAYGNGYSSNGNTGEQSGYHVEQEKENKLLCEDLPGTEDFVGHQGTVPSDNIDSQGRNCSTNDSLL
UniProt P08588, whole entry: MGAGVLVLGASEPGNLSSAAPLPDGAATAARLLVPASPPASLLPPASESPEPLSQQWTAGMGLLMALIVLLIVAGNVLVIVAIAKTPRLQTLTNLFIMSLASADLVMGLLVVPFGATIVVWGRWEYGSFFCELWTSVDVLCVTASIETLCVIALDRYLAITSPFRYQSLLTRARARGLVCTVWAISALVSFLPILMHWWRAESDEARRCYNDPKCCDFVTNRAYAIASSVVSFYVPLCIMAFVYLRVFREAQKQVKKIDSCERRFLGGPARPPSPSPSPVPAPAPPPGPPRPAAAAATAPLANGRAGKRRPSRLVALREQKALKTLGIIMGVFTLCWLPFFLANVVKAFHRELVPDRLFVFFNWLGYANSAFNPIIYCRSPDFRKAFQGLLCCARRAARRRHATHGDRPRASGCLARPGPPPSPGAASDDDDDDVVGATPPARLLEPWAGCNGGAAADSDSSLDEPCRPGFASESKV

According to patent US20050096347A1, “Beta3-Adrenoreceptor agonists, agonist compositions and methods of using” (Molecular Design International, Inc., priority 1997, published 2005):

How the values were obtained:
human β2 Adrenoreceptor = target: T1, human β2 Adrenoreceptor (Homo sapiens, UniProt P07550); test: Radioligand competition binding, human β2 adrenoreceptor expressed in CHO cells ([125I]ICYP); conditions: [125I]ICYP as radioligand
T1 construct: expressed in transfected cells

human β1 Adrenoreceptor = human β1 Adrenoreceptor (Homo sapiens, UniProt P08588); test: Radioligand competition binding, human β1 adrenoreceptor expressed in CHO cells ([125I]ICYP)

pKi ± SEM, Human β2 Adrenoreceptor CHO (human β2 Adrenoreceptor; N = 4-9) | pKi ± SEM, human β2 CHO (human β2 Adrenoreceptor; N = 4-9 (Table 2)) | pKi ± SEM, human β1 CHO (human β1 Adrenoreceptor; [125I]ICYP as radioligand, N = 4-9 (Table 2)) | Ki (human β1 Adrenoreceptor) [nM] | Compound
8.69 and 8.69 ± 0.16 | 8.69 ± 0.16 | 7.10 ± 0.06 |  | COc1c(I)cc(CC2NCCc3cc(O)c(O)cc32)cc1I (stereo not shown) [Compound 2, reference compound]
 |  |  | 25 | COc1c(I)cc(CC2NCCc3cc(O)c(O)cc32)cc1I (stereo not shown) [drawing 80]

Where “and” joins values, the source holds several entries; their conditions need not be identical. Equal values may be shown once.
